Assay results published in patent publication US20120196933A1, “MEXILETINE PRODRUGS” (priority 2010, published 2012).

Assay: Systemic availability of mexiletine in the dog from mexiletine prodrugs (oral gavage)
Format: in vivo
Settings: 1 mg/kg mexiletine free base, plasma mexiletine
Protocol: Test substances (i.e., mexiletine, and various mexiletine amino acid prodrugs) were administered by oral gavage to groups of two or some cases five dogs. The characteristics of the test animals are set out in Table 6.
Blood samples were taken at various times after administration and submitted to analysis for parent drug using a validated LC-MS-MS assay. Pharmacokinetic parameters derived from the plasma bioanalytical data were determined using Win Nonlin.

Cmax of mexiletine: BLQ
Substance: Mexiletine acetyl-ornithine amide
